From ChEMBL document CHEMBL1125192, “Analogues of the 5-HT1A serotonin antagonist 1-(2-methoxyphenyl)-4-[4-(2-phthalimido)butyl]piperazine with reduced alpha 1-adrenergic affinity” (J Med Chem, 1991)

The chains behind the UniProt entries cited, without tags or fusion partners.
UniProt P19327, whole entry: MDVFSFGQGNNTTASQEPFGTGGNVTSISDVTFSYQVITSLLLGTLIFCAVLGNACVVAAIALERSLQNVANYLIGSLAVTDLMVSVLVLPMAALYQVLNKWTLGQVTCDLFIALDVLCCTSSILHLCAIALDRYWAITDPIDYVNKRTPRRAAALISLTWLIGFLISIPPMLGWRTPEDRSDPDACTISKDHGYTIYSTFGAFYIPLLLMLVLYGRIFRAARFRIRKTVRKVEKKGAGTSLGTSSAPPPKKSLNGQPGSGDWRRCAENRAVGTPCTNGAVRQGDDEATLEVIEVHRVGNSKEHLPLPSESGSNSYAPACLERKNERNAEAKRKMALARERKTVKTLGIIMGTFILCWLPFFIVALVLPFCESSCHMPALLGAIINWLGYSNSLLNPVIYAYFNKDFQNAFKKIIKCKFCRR

Biological target: 5-hydroxytryptamine receptor 1A (Rattus norvegicus, UniProt P19327)
Test: Binding affinity towards 5-hydroxytryptamine 1A receptor of rat hippocampus using [3H]-8-hydroxy-2-(di-n-propylamine) tetralin (8-OH-DPAT) as a radioligand
Format: tissue-based
Procedure, shortened: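 Rat hippocampal homogenate (6 mg) incubated with 0.1 nM [3H]-8-OH-DPAT; nonspecific binding defined with 10 μM 8-OH-DPAT.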

With `COc1ccccc1N1CCN(CCCCNC(=O)CCCc2ccccc2)CC1` the Ki was 12 nM.
